# Permeability data for macrocyclic peptides

Values of Townsend et al. 2020, doi:10.26434/chemrxiv.13335941.v1, as listed in CycPeptMPDB.

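Conditions beyond the assay type are not listed; see the original paper. The list need not hold all peptides of the study. Entries at the database's floor value (log10 P of -10) are not listed.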

PAMPA is the parallel artificial membrane permeability assay, which has no cells and reads passive diffusion.
Permeability is given as log10 of P in cm/s; higher (less negative) is more permeable.

structure (SMILES) | PAMPA (log10 cm/s)
CC(C)C[C@@H]1NC(=O)[C@@H]2CCCN2C(=O)CN(Cc2ccccc2)C(=O)[C@H](CC(C)C)NC(=O)[C@H](C)NC(=O)[C@H]2CCCN2C(=O)[C@H](Cc2ccccc2)NC1=O | -6.17
CC(C)C[C@@H]1NC(=O)C[C@H](Cc2ccccc2)NC(=O)[C@H](Cc2ccccc2)NC(=O)[C@H](CC(C)C)N(C)C(=O)[C@@H]2CCCN2C(=O)[C@H](CC(C)C)NC1=O | -5.67
CC(C)C[C@@H]1NC(=O)[C@@H](CC(C)C)NC(=O)[C@@H](C)NC(=O)[C@H](Cc2ccccc2)NC(=O)CN(Cc2ccccc2)C(=O)[C@@H]2CCCN2C1=O | -6.34
CC(C)C[C@@H]1NC(=O)CN(Cc2ccccc2)C(=O)[C@H](C)N(C)C(=O)[C@@H]2CCCN2C(=O)[C@H](Cc2ccccc2)NC(=O)[C@H](CC(C)C)N(C)C(=O)[C@H]2CCCN2C1=O | -5.43
CC(C)C[C@@H]1NC(=O)[C@@H](C)N(C)C(=O)[C@@H]2CCCN2C(=O)[C@H](Cc2ccccc2)NC(=O)CN(Cc2ccccc2)C(=O)[C@H]2CCCN2C(=O)CN(Cc2ccccc2)C1=O | -5.91
CC(C)C[C@@H]1NC(=O)[C@H](C)N(C)C(=O)[C@H]2CCCN2C(=O)[C@H](Cc2ccccc2)NC(=O)CN(Cc2ccccc2)C(=O)[C@H]2CCCN2C(=O)CN(Cc2ccccc2)C1=O | -5.43
CC(C)C[C@H]1NC(=O)[C@H]2CCCN2C(=O)C[C@H](Cc2ccccc2)NC(=O)[C@@H](CC(C)C)NC(=O)[C@@H](C)NC(=O)[C@H](Cc2ccccc2)NC1=O | -6.01
CC(C)C[C@@H]1C(=O)N[C@@H](Cc2ccccc2)C(=O)N2CCC[C@H]2C(=O)N[C@@H](Cc2ccccc2)CC(=O)N(C)[C@@H](CC(C)C)C(=O)N(C)[C@@H](CC(C)C)C(=O)N2CCC[C@@H]2C(=O)N1C | -5.21
CC(C)C[C@@H]1NC(=O)[C@H](C)N(C)C(=O)[C@@H]2CCCN2C(=O)[C@H](Cc2ccccc2)NC(=O)CN(Cc2ccccc2)C(=O)[C@@H]2CCCN2C(=O)[C@@H](CC(C)C)NC1=O | -7.13
CCCN1CC(=O)N(C)[C@@H](CC(C)C)C(=O)N(Cc2ccccc2)CC(=O)N2CCC[C@@H]2C(=O)N(C)[C@H](CC(C)C)C(=O)N[C@@H](Cc2ccccc2)C(=O)N2CCC[C@@H]2C1=O | -5.31
CC(C)C[C@@H]1NC(=O)[C@H](C)N(C)C(=O)[C@H](Cc2ccccc2)NC(=O)CN(Cc2ccccc2)C(=O)[C@H]2CCCN2C(=O)C[C@H](Cc2ccccc2)NC1=O | -5.81
CCCN1CC(=O)N[C@H](CC(C)C)C(=O)N(C)[C@@H](CC(C)C)C(=O)N2CCC[C@@H]2C(=O)N[C@H](CC(C)C)C(=O)N[C@@H](Cc2ccccc2)C(=O)N2CCC[C@@H]2C1=O | -5.65
CC(C)C[C@@H]1C(=O)N[C@@H](Cc2ccccc2)C(=O)N2CCC[C@H]2C(=O)N[C@@H](C)C(=O)N[C@H](CC(C)C)C(=O)N(C)[C@@H](CC(C)C)C(=O)N2CCC[C@@H]2C(=O)N1C | -5.69
CCCN1CC(=O)N(C)[C@@H](CC(C)C)C(=O)N[C@H](CC(C)C)C(=O)N2CCC[C@H]2C(=O)N(C)[C@H](CC(C)C)C(=O)N[C@@H](Cc2ccccc2)C1=O | -4.82
CC(C)C[C@@H]1NC(=O)[C@@H](CC(C)C)NC(=O)[C@@H](C)NC(=O)[C@H]2CCCN2C(=O)[C@H](Cc2ccccc2)NC(=O)CN(Cc2ccccc2)C(=O)[C@H]2CCCN2C1=O | -6.04
CC(C)C[C@@H]1C(=O)N2CCC[C@H]2C(=O)N(C)[C@H](CC(C)C)C(=O)N[C@@H](Cc2ccccc2)C(=O)N2CCC[C@H]2C(=O)N[C@H](C)C(=O)N[C@H](CC(C)C)C(=O)N1C | -6.86
CC(C)C[C@@H]1NC(=O)[C@@H]2CCCN2C(=O)CN(Cc2ccccc2)C(=O)[C@@H](CC(C)C)NC(=O)[C@H](C)N(C)C(=O)[C@@H]2CCCN2C(=O)[C@H](Cc2ccccc2)NC1=O | -6.79
CC(C)C[C@H]1NC(=O)[C@H](CC(C)C)N(C)C(=O)[C@H](C)NC(=O)[C@@H]2CCCN2C(=O)[C@H](Cc2ccccc2)NC(=O)CN(Cc2ccccc2)C(=O)[C@@H]2CCCN2C1=O | -5.26
CC(C)C[C@H]1NC(=O)[C@H]2CCCN2C(=O)C[C@H](Cc2ccccc2)NC(=O)[C@H](CC(C)C)N(C)C(=O)[C@@H](C)N(C)C(=O)[C@H]2CCCN2C(=O)[C@H](Cc2ccccc2)NC1=O | -6.30

3 of these entries, quoted again:

{"smiles": "CCCN1CC(=O)N[C@H](CC(C)C)C(=O)N(C)[C@@H](CC(C)C)C(=O)N2CCC[C@@H]2C(=O)N[C@H](CC(C)C)C(=O)N[C@@H](Cc2ccccc2)C(=O)N2CCC[C@@H]2C1=O", "PAMPA (log10 cm/s)": "-5.65"}
{"smiles": "CC(C)C[C@H]1NC(=O)[C@H]2CCCN2C(=O)C[C@H](Cc2ccccc2)NC(=O)[C@@H](CC(C)C)NC(=O)[C@@H](C)NC(=O)[C@H](Cc2ccccc2)NC1=O", "PAMPA (log10 cm/s)": "-6.01"}
{"smiles": "CCCN1CC(=O)N(C)[C@@H](CC(C)C)C(=O)N(Cc2ccccc2)CC(=O)N2CCC[C@@H]2C(=O)N(C)[C@H](CC(C)C)C(=O)N[C@@H](Cc2ccccc2)C(=O)N2CCC[C@@H]2C1=O", "PAMPA (log10 cm/s)": "-5.31"}